The nature of series [1]: Toxicity to KHYG-1 NK cells (Trypan blue exclusion). It counts as cell-based. The following applies: human, after 24 h, ± SEM. The procedure: The use of NK cells to secrete perforin rather than employing isolated recombinant protein is a more stringent test of a compound’s ability to block lytic activity, requiring the inhibitor to access the synaptic cleft between effector (NK) and target cells where perforin is released. In this assay, inhibitor is co-incubated with KHYG-1 NK cells in medium for 30 min at room temperature, ^51Cr-labelled target cells added and cell lysis evaluated after 4 h incubation at 37 °C by measuring ^51Cr release.
The toxicity assay was carried out in exactly the same manner as the killing assay above, but instead of adding the labelled K562 target cells, 100 μL of RPMI 0.1% BSA was added. Cells were incubated for 4 h at 37 °C and then washed ×3 in RPMI + 0.1% BSA. […] Trypan blue was added to each well. Viable (clear) cells and total (clear + blue) cells were counted, and the percentage of viable cells was calculated compared to DMSO treated cell control (% viability).

Series [2] can be described thus: Microsome stability, rat. It counts as in vitro ADME. The following applies: sodium salt, rat microsomes, 30 min.

A value given as a limit tells only on which side of the number the result lay.

With `CN1Cc2cc(-c3ccc(-c4cncc(NS(=O)(=O)c5ccc(F)cc5F)c4)s3)ccc2C1=O` [Compound 5], the viability at 24 h, 20 µM in series [1] was > 90%. Moreover, the “Microsome stability (% parent remaining), Rat” value in series [2] is listed as 99%.

Broadly, the viability is a per cent measure of how many cells are alive, often set against a control. Read a high viability as less harm to the cells.
